The structures appear in SMILES notation. This is one part of the list.

The test has as its system A. baumannii ATCC 17978. The test can be described thus: relative growth (fraction of control); higher = less inhibition. The settings on record: 50 µM.
Compound `Cc1ccc(S(=O)(=O)N(C)C[C@@H]2Oc3c(NC(=O)Nc4cccc5ccccc45)cccc3C(=O)N([C@H](C)CO)C[C@H]2C)cc1` showed a relative growth of 1.01.
As for `COc1ccc2c(c1)OCC(Cc1ccc(OC)c(OC)c1)C2=O` (stereo unspecified), the figure is 1.03; as for `CC1(C)C2CC[C@@]3(C)C4CC[C@@]5(C)CC[C@](C)(C(=O)[O-])C[C@H]5C4=CC(=O)C3[C@@]2(C)CC[C@@H]1O[C@@H]1O[C@H](C(=O)[O-])[C@@H](O[C@@H]2O[C@H](C(=O)[O-])[C@@H](O)[C@H](O)[C@H]2O)[C@H](O)[C@H]1O.[NH4+].[NH4+].[NH4+]` (stereo partly specified), 1.02.
Turning to `COc1cccc(S(=O)(=O)N[C@H]2C=C[C@@H](CC(=O)NC3CCC3)O[C@H]2CO)c1`, the relative growth was found to be 1.03.
In the case of `C[C@@H]1Cn2nncc2CO1`, the relative growth came to 1.1.
The figure for `C=CC[C@H](CC(=O)N(CCO)Cc1ccccc1)C(=O)NCCOC(=O)[C@H](CC=C)CC(=O)OC(C)(C)C` is 0.731; for `Cn1c(=O)oc2cc(S(=O)(=O)N3CCC[C@H](C(=O)NN4CCOCC4)C3)ccc21` it is 1.11; for `CCOC(=O)Nc1ccc(NCc2ccc(F)cc2)nc1N.O=C(O)/C=C\C(=O)O` it is 1.12.
As for `COc1ccc(C[C@H](N)C(=O)N[C@@H]2[C@@H](CO)OC(n3cnc4c(N(C)C)ncnc43)[C@@H]2O)cc1.Cl.Cl` (stereo partly specified), the figure is 0.412; as for `CCCCN1CCCCC1C(=O)Nc1c(C)cccc1C.Cl` (stereo unspecified), 1.13; as for `Cc1[nH]c(SCCC(=O)O)nc(=O)c1C`, 0.898.
The figure for `CN1CCN(C(=O)C[C@H]2CC[C@H]3[C@@H](COC[C@@H](O)CN3Cc3ccc4c(c3)OCO4)O2)CC1` is 1.04.
Compound `C[C@H](CO)N1C[C@H](C)[C@H](CN(C)Cc2ccccc2F)Oc2cc(C#CC3CC3)ccc2S1(=O)=O` had a relative growth of 1.03.
The figure for `O=C(C[C@@H]1CC[C@H]2[C@@H](COC[C@@H](O)CN2C(=O)Nc2cc(Cl)cc(Cl)c2)O1)N1CCOCC1` is 1.1.
As for `C[C@@H]1CN([C@@H](C)CO)S(=O)(=O)c2ccc(C#Cc3ccncc3)cc2O[C@H]1CN(C)C(=O)c1ccncc1`, the relative growth was found to be 1.08.
The figure for `C[C@@H]1CN(c2c(F)c(F)c3c(=O)c(C(=O)O)cn(C4CC4)c3c2F)C[C@H](C)N1` is 0.142.
As for `C[C@@H]1CN([C@@H](C)CO)S(=O)(=O)c2ccc(-c3cccnc3)cc2O[C@H]1CN(C)C(=O)NC1CCCCC1`, the figure is 0.927; as for `Cc1c(/C=N/O)sc2ccccc12`, 0.727; as for `CCCNC(=O)N1C[C@@H](O)COC[C@@H]2O[C@H](CC(=O)NCc3ccncn3)CC[C@H]21`, 0.833.
The figure for `CC[C@]12CCCN3CCc4c(n(c5ccccc45)[C@@](O)(C(=O)OC)C1)[C@@H]32` is 0.933.
Turning to `CCSc1nnc2c(=O)[nH]c(=O)[nH]c2n1`, the relative growth amounted to 0.886.
